In PubChem BioAssay AID485281 (National Center for Advancing Translational Sciences (NCATS), 2010):
The whole screen tested about 350,000 compounds, of which about 260 (0.074%) were called active. Listed are the inconclusive results; actives and inactives stand elsewhere. Calls come from the whole dose curve; as a rule, active = well fitted inhibition curve with a large enough effect; inconclusive = small, poorly fitted or top-dose-only effect; inactive = no such curve, though single readings can be large or run the other way.

Sequences of proteins named here, by UniProt entry; tags and fusion partners are left off. A change or cut given only in a name is not applied to a line headed by its entry.
UniProt P02791: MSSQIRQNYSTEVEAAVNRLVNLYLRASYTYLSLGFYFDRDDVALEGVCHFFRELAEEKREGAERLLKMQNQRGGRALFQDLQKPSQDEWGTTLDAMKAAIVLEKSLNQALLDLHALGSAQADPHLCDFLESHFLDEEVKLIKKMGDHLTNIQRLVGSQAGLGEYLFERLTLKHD

target: Ferritin light chain (Equus caballus) (UniProt P02791); assay: qHTS Assay for Identification of Novel General Anesthetics; settings: apoferritin/1-aminoanthracene competitive binding, fluorescence; note: nearly all actives have a fitted effect of over 20% in size
Potency is the fitted concentration of half-maximal effect.

SMILES | Potency
O=[N+]([O-])c1cc([N+](=O)[O-])c(-c2ccn[nH]2)s1 | inconclusive: 50.1 µM
CC1CCC(C(C)C)C(OP(=O)(Nc2ccccn2)c2ccccc2)C1 (stereo not given) | inconclusive: 11.2 µM
O=P1(Nc2nc3ccc(Cl)cc3s2)COc2ccccc2O1 (stereo not given) | inconclusive: 28.2 µM
CCOC(=O)NC(Sc1ccccc1)C(Cl)(Cl)Cl (stereo not given) | inconclusive: 17.8 µM
O=[N+]([O-])c1cc([N+](=O)[O-])c(CCNc2ccccc2)c([N+](=O)[O-])c1 | inconclusive: 20 µM
